Reference: patent US20140072613A1, “Compositions and Methods for Treating Cutaneous Scarring” (priority 2012, published 2014)
Read-outs that look alike come from different tables or passages of the source.

By UniProt entry, the sequences of proteins in these tests, tags left out. Where a name states a change or a piece, a line headed by the entry shows the natural chain unless it says otherwise. Residues count along the entry.
UniProt Q9NQU5: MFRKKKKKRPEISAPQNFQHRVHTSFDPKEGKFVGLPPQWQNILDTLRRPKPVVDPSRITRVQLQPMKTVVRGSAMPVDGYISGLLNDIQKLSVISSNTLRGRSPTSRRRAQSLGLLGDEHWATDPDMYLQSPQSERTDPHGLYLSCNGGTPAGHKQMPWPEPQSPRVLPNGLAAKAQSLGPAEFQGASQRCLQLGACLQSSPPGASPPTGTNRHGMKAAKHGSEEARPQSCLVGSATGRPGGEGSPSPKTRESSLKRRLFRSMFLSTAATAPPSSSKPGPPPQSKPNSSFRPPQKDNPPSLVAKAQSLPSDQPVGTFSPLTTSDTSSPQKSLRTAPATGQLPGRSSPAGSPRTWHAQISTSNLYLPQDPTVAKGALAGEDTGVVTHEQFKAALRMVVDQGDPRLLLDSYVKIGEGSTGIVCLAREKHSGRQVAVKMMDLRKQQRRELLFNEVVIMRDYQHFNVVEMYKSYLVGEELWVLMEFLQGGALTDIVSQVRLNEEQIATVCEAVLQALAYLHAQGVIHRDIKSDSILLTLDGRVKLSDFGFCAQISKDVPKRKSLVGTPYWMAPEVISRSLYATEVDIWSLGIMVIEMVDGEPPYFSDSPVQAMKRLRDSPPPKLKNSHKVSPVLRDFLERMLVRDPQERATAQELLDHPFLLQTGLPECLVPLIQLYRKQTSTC
UniProt O75914, whole entry: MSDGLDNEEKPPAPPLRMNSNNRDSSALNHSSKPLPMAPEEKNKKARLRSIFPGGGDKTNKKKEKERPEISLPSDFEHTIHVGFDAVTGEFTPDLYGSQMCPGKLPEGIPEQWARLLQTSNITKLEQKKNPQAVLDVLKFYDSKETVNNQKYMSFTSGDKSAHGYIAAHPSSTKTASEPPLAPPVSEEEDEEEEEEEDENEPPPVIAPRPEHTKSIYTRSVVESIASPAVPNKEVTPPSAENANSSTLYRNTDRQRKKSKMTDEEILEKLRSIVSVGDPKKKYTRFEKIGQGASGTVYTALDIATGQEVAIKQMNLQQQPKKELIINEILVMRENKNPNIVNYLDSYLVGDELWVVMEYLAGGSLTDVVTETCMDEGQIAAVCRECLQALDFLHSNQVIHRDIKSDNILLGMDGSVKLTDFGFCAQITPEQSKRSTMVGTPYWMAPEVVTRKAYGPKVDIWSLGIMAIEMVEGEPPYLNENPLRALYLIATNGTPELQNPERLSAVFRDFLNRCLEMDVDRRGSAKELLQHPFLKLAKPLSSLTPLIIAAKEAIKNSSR
UniProt P11362, 22-822 V561M: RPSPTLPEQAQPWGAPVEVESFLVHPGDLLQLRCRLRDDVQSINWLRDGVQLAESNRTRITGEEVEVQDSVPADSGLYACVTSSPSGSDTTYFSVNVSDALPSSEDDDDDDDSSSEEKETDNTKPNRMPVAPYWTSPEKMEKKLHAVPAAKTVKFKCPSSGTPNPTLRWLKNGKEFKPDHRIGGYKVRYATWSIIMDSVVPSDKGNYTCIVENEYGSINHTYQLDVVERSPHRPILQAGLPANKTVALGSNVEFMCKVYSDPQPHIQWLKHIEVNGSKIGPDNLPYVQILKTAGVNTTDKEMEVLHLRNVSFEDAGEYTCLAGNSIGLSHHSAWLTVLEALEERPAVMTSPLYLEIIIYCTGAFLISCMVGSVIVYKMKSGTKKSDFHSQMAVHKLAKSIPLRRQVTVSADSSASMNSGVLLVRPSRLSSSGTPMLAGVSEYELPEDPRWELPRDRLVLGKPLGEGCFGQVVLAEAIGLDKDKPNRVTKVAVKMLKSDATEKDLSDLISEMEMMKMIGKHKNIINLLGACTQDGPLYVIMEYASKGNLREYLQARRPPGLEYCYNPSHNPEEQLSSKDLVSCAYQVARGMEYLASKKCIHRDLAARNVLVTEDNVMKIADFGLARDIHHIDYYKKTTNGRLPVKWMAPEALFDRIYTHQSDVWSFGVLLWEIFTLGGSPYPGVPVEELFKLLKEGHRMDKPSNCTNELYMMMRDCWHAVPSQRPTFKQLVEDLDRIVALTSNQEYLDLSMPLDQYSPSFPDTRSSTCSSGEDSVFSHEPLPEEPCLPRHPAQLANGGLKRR
UniProt Q9HCP0: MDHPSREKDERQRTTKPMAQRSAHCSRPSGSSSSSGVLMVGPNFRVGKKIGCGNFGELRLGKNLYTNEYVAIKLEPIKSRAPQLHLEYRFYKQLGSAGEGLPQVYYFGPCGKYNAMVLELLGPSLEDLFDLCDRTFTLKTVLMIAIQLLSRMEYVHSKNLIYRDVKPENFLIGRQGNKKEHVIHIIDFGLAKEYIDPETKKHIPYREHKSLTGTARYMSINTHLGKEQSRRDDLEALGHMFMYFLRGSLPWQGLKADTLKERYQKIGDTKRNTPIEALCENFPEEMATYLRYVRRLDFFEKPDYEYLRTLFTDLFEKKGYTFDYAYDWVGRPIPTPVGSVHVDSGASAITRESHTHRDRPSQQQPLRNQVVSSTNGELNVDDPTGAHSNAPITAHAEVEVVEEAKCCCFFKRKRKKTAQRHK
UniProt Q9Y6M4: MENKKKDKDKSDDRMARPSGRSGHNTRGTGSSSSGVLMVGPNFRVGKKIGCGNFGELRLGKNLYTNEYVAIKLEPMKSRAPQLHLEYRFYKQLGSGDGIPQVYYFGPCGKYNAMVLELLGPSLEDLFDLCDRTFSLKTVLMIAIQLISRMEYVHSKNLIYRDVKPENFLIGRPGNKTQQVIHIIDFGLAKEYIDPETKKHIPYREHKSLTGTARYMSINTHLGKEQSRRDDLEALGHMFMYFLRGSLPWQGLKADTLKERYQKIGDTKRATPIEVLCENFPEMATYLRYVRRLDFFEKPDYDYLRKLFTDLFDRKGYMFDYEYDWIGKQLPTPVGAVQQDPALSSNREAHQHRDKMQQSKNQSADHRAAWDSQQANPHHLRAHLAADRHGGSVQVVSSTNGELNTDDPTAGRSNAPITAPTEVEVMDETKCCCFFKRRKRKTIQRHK
UniProt P78368: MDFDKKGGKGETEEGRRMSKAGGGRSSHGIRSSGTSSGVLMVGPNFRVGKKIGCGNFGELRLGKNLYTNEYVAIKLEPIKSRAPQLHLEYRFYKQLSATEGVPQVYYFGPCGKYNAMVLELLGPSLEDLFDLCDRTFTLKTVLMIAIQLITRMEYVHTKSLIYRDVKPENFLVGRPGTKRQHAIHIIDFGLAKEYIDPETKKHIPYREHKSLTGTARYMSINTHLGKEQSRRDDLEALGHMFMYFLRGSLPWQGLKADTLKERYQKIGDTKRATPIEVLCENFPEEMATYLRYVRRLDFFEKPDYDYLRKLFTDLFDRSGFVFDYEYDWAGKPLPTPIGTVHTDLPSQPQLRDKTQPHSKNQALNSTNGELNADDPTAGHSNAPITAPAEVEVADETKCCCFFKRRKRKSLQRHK

Columns and labels:
[1] = tested on: immunomodulatory and stem cells in the scar region; assay: FACS population analysis of immunomodulatory and stem cells in the scar region (mouse hypertrophic scarring model); format: in vivo; conditions: MMI-0300 treatment vs PBS
[2] = tested on: scar-related genes (ccl2, ccr2, col1α2, col 3α1, emr1, IL-6, TGF-β1); assay: qRT-PCR of scar related gene transcripts in scar area (mouse hypertrophic scarring model); format: in vivo; conditions: 50 μg/kg intraperitoneal daily; PBS n=3, MMI n=6
266 human kinases [3] = molecular target: 266 human kinases (Homo sapiens, UniProt P53350); format: biochemical; conditions: Plk1(h); 100 μM
From the text: (§1) Specifically, in these assays, a positively charged substrate is phosphorylated with a radiolabeled phosphate group from an ATP if the kinase is not inhibited by an inhibitor peptide. The positively charged substrate then is attracted to a negatively charged filter membrane, quantified with a scintillation counter, and compared to a 100% activity control.

266 human kinases [4] = molecular target: 266 human kinases (Homo sapiens, UniProt P34947); format: biochemical; conditions: GRK5(h); 100 μM
From the text: as §1

266 human kinases [5] = molecular target: 266 human kinases (Homo sapiens, UniProt Q9NQU5); format: biochemical; conditions: PAK6(h); 100 μM
From the text: as §1

266 human kinases [6] = molecular target: 266 human kinases (Homo sapiens, UniProt P19784); format: biochemical; conditions: CK2α2(h); 100 μM
From the text: as §1

266 human kinases [7] = molecular target: 266 human kinases (Homo sapiens, UniProt O75914); format: biochemical; conditions: PAK3(h); 100 μM
From the text: as §1

266 human kinases [8] = molecular target: 266 human kinases (Homo sapiens, UniProt P21802, N549H); format: biochemical; conditions: FGFR2(N549H)(h); 100 μM
From the text: as §1

266 human kinases [9] = format: biochemical; conditions: 100 μM
From the text: as §1

266 human kinases [10] = molecular target: 266 human kinases (Homo sapiens, UniProt P11362, V561M); format: biochemical; conditions: FGFR1(V561M)(h); 100 μM
From the text: as §1

266 human kinases [11] = molecular target: 266 human kinases (Homo sapiens, UniProt Q9HCP0); format: biochemical; conditions: CK1γ1(h); 100 μM
From the text: as §1

266 human kinases [12] = molecular target: 266 human kinases (Homo sapiens, UniProt Q9Y6M4); format: biochemical; conditions: CK1γ3(h); 100 μM
From the text: as §1

266 human kinases [13] = molecular target: 266 human kinases (Homo sapiens, UniProt P08069); format: biochemical; conditions: IGF-1R(h); 100 μM
From the text: as §1

266 human kinases [14] = molecular target: 266 human kinases (Homo sapiens, UniProt P49760); format: biochemical; conditions: CLK2(h); 100 μM
From the text: as §1

266 human kinases [15] = molecular target: T1, 266 human kinases (Homo sapiens, UniProt O14733); format: biochemical; conditions: MKK7β(h); 100 μM
T1 sequence (O14733 1-419): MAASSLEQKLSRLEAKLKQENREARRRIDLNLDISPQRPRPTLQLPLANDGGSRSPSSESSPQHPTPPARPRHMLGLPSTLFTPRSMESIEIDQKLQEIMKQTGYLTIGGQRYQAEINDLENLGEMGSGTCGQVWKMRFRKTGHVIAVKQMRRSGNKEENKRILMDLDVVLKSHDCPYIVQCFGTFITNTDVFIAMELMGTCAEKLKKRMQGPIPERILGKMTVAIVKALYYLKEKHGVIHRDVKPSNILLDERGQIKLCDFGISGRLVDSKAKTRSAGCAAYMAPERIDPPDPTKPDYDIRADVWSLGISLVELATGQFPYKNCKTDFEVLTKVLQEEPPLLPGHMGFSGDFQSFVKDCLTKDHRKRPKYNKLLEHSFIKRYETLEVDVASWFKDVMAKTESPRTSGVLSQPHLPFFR
From the text: as §1

266 human kinases [16] = molecular target: 266 human kinases (Homo sapiens, UniProt P78368); format: biochemical; conditions: CK1γ2(h); 100 μM
From the text: as §1

Fgr (h) = Fgr (h) (Homo sapiens, UniProt P09769); conditions: 100 μM
From the text: as §1

Sequence	cell population in scar areas (FACS), young and old mice [1]	expression of ccl2 and TGF-β1 in the scar area (qRT-PCR) vs control mice [2]	% activity (266 human kinases [3])	% activity (266 human kinases [4])	% activity (266 human kinases [5])	% activity (266 human kinases [6])	% activity (266 human kinases [7])	% activity (266 human kinases [8])	% activity (266 human kinases [9]; JNK1α1(h))	% activity (266 human kinases [9]; MAPK1(h))	% activity (266 human kinases [10])	% activity (266 human kinases [11])	% activity (266 human kinases [12])	% activity (266 human kinases [13])	% activity (266 human kinases [14])	% activity (266 human kinases [15])	% activity (266 human kinases [16])	% activity (Fgr (h))
FAKLAARLYRKALARQLGVAA [MMI-0300]	decreases in macrophages, and other monocyte-related and progenitor stem cells	considerable modulation in the expression of ccl2 and TGF-β1																
HRRIKAWLKKIKALARQLGVAA (mammal) [MMI-0500]			104%	116%	107%	103%	102%	105%	109%	102%	113%	109%	114%	117%	116%	102%	119%	109%
